Source: paper PMC9295147 (2022)

B1: dT14-3-3_biPKA, unphosphorylated (other)
chain: MAVAPTAREENVYMAKLAEQAERYEEMVEFMEKVSNSLGSEELTVEERNLLSVAYKNVIGARRASWRIISSIEQKEESRGNEEHVNSIREYRSKIENELSKICDGILKLLDAKLIPSAASGDSKVFYLKMKGDYHRYLAEFKTGAERKEAAESTLTAYKAAQDIATTELAPTHPIRLGLALNFSVFYYEILNSPDRACNLAKQAFDEAIAELDTLGEESYKDSTLIMQLLRDNLTLWTSDMQGGSGGSGGSGGSGGSGGSGGSGGSGGSGGSMAVAPTAREENVYMAKLAEQAERYEEMVEFMEKVSNSLGSEELTVEERNLLSVAYKNVIGARRASWRIISSIEQKEESRGNEEHVNSIREYRSKIENELSKICDGILKLLDAKLIPSAASGDSKVFYLKMKGDYHRYLAEFKTGAERKEAAESTLTAYKAAQDIATTELAPTHPIRLGLALNFSVFYYEILNSPDRACNLAKQAFDEAIAELDTLGEESYKDSTLIMQLLRDNLTLWTSDMQGTSGGSGGSGGSGGSDDVTPCSMSGGSGGSENLYFQSGGSGGSGGSGGSGGSGGSGGSGGSGALSGGSTGTQHRYSTPHAFTFNTSSPSSEGSLSQRQRSTSTPNVH
B2: dT14-3-3_PKA/CHK1, unphosphorylated (other)
chain: MAVAPTAREENVYMAKLAEQAERYEEMVEFMEKVSNSLGSEELTVEERNLLSVAYKNVIGARRASWRIISSIEQKEESRGNEEHVNSIREYRSKIENELSKICDGILKLLDAKLIPSAASGDSKVFYLKMKGDYHRYLAEFKTGAERKEAAESTLTAYKAAQDIATTELAPTHPIRLGLALNFSVFYYEILNSPDRACNLAKQAFDEAIAELDTLGEESYKDSTLIMQLLRDNLTLWTSDMQGGSGGSGGSGGSGGSGGSGGSGGSGGSGGSMAVAPTAREENVYMAKLAEQAERYEEMVEFMEKVSNSLGSEELTVEERNLLSVAYKNVIGARRASWRIISSIEQKEESRGNEEHVNSIREYRSKIENELSKICDGILKLLDAKLIPSAASGDSKVFYLKMKGDYHRYLAEFKTGAERKEAAESTLTAYKAAQDIATTELAPTHPIRLGLALNFSVFYYEILNSPDRACNLAKQAFDEAIAELDTLGEESYKDSTLIMQLLRDNLTLWTSDMQGTSGGSGGSGGSGGSDDVTPCSMSGGSGGSENLYFQSGGSGGSGGSGGSGGSGGSGGSGGSGALSGGSTGTRQRSTSTPNVGGSGGSGGSGSLYRSPSMPEN
B3: dT14-3-3_PKB/CHK1, unphosphorylated (other)
chain: MAVAPTAREENVYMAKLAEQAERYEEMVEFMEKVSNSLGSEELTVEERNLLSVAYKNVIGARRASWRIISSIEQKEESRGNEEHVNSIREYRSKIENELSKICDGILKLLDAKLIPSAASGDSKVFYLKMKGDYHRYLAEFKTGAERKEAAESTLTAYKAAQDIATTELAPTHPIRLGLALNFSVFYYEILNSPDRACNLAKQAFDEAIAELDTLGEESYKDSTLIMQLLRDNLTLWTSDMQGGSGGSGGSGGSGGSGGSGGSGGSGGSGGSMAVAPTAREENVYMAKLAEQAERYEEMVEFMEKVSNSLGSEELTVEERNLLSVAYKNVIGARRASWRIISSIEQKEESRGNEEHVNSIREYRSKIENELSKICDGILKLLDAKLIPSAASGDSKVFYLKMKGDYHRYLAEFKTGAERKEAAESTLTAYKAAQDIATTELAPTHPIRLGLALNFSVFYYEILNSPDRACNLAKQAFDEAIAELDTLGEESYKDSTLIMQLLRDNLTLWTSDMQGTSGGSGGSGGSGGSDDVTPCSMSGGSGGSENLYFQSGGSGGSGGSGGSGGSGGSGGSGGSGALSGGSTGTRARTSSFAEPGGSGGSGGSGSLYRSPSMPEN
B4: dT14-3-3_PKA/PKB, unphosphorylated (other)
chain: MAVAPTAREENVYMAKLAEQAERYEEMVEFMEKVSNSLGSEELTVEERNLLSVAYKNVIGARRASWRIISSIEQKEESRGNEEHVNSIREYRSKIENELSKICDGILKLLDAKLIPSAASGDSKVFYLKMKGDYHRYLAEFKTGAERKEAAESTLTAYKAAQDIATTELAPTHPIRLGLALNFSVFYYEILNSPDRACNLAKQAFDEAIAELDTLGEESYKDSTLIMQLLRDNLTLWTSDMQGGSGGSGGSGGSGGSGGSGGSGGSGGSGGSMAVAPTAREENVYMAKLAEQAERYEEMVEFMEKVSNSLGSEELTVEERNLLSVAYKNVIGARRASWRIISSIEQKEESRGNEEHVNSIREYRSKIENELSKICDGILKLLDAKLIPSAASGDSKVFYLKMKGDYHRYLAEFKTGAERKEAAESTLTAYKAAQDIATTELAPTHPIRLGLALNFSVFYYEILNSPDRACNLAKQAFDEAIAELDTLGEESYKDSTLIMQLLRDNLTLWTSDMQGTSGGSGGSGGSGGSDDVTPCSMSGGSGGSENLYFQSGGSGGSGGSGGSGGSGGSGGSGGSGALSGGSTGTRQRSTSTPNVGGSGGSGGSGSRARTSSFAEP
B5: dT14-3-3_biCHK1, unphosphorylated (other)
chain: MAVAPTAREENVYMAKLAEQAERYEEMVEFMEKVSNSLGSEELTVEERNLLSVAYKNVIGARRASWRIISSIEQKEESRGNEEHVNSIREYRSKIENELSKICDGILKLLDAKLIPSAASGDSKVFYLKMKGDYHRYLAEFKTGAERKEAAESTLTAYKAAQDIATTELAPTHPIRLGLALNFSVFYYEILNSPDRACNLAKQAFDEAIAELDTLGEESYKDSTLIMQLLRDNLTLWTSDMQGGSGGSGGSGGSGGSGGSGGSGGSGGSGGSMAVAPTAREENVYMAKLAEQAERYEEMVEFMEKVSNSLGSEELTVEERNLLSVAYKNVIGARRASWRIISSIEQKEESRGNEEHVNSIREYRSKIENELSKICDGILKLLDAKLIPSAASGDSKVFYLKMKGDYHRYLAEFKTGAERKEAAESTLTAYKAAQDIATTELAPTHPIRLGLALNFSVFYYEILNSPDRACNLAKQAFDEAIAELDTLGEESYKDSTLIMQLLRDNLTLWTSDMQGTSGGSGGSGGSGGSDDVTPCSMSGGSGGSENLYFQSGGSGGSGGSGGSGGSGGSGGSGGSGALSGGSTGTLYRSPSMPENGGSGGSGGSGSLYRSPSMPEN
B6: dT14-3-3_biPKB, unphosphorylated (other)
chain: MAVAPTAREENVYMAKLAEQAERYEEMVEFMEKVSNSLGSEELTVEERNLLSVAYKNVIGARRASWRIISSIEQKEESRGNEEHVNSIREYRSKIENELSKICDGILKLLDAKLIPSAASGDSKVFYLKMKGDYHRYLAEFKTGAERKEAAESTLTAYKAAQDIATTELAPTHPIRLGLALNFSVFYYEILNSPDRACNLAKQAFDEAIAELDTLGEESYKDSTLIMQLLRDNLTLWTSDMQGGSGGSGGSGGSGGSGGSGGSGGSGGSGGSMAVAPTAREENVYMAKLAEQAERYEEMVEFMEKVSNSLGSEELTVEERNLLSVAYKNVIGARRASWRIISSIEQKEESRGNEEHVNSIREYRSKIENELSKICDGILKLLDAKLIPSAASGDSKVFYLKMKGDYHRYLAEFKTGAERKEAAESTLTAYKAAQDIATTELAPTHPIRLGLALNFSVFYYEILNSPDRACNLAKQAFDEAIAELDTLGEESYKDSTLIMQLLRDNLTLWTSDMQGTSGGSGGSGGSGGSDDVTPCSMSGGSGGSENLYFQSGGSGGSGGSGGSGGSGGSGGSGGSGALSGGSTGTRARTSSFAEPGGSGGSGGSGSRARTSSFAEP
B7: dimeric Tobacco 14-3-3 scaffold (other)
chain: MAVAPTAREENVYMAKLAEQAERYEEMVEFMEKVSNSLGSEELTVEERNLLSVAYKNVIGARRASWRIISSIEQKEESRGNEEHVNSIREYRSKIENELSKICDGILKLLDAKLIPSAASGDSKVFYLKMKGDYHRYLAEFKTGAERKEAAESTLTAYKAAQDIATTELAPTHPIRLGLALNFSVFYYEILNSPDRACNLAKQAFDEAIAELDTLGEESYKDSTLIMQLLRDNLTLWTSDMQGGSGGSGGSGGSGGSGGSGGSGGSGGSGGSMAVAPTAREENVYMAKLAEQAERYEEMVEFMEKVSNSLGSEELTVEERNLLSVAYKNVIGARRASWRIISSIEQKEESRGNEEHVNSIREYRSKIENELSKICDGILKLLDAKLIPSAASGDSKVFYLKMKGDYHRYLAEFKTGAERKEAAESTLTAYKAAQDIATTELAPTHPIRLGLALNFSVFYYEILNSPDRACNLAKQAFDEAIAELDTLGEESYKDSTLIMQLLRDNLTLWTSDMQ

What follows are binders tested against m7 (FITC label, end not stated) (assay: FP).
B1 showed a Kd of 21.9 nM.
Binder B2 has a Kd of 23.3 nM.
In the case of B3, the Kd is reported as 26.3 nM.
In the case of B4, the Kd is reported as 29.1 nM.
With B5 the Kd was 18.9 nM.
B6 was tested, and the Kd was 22 nM.
With B7 the Kd was 29.4 nM.
